# Results from ChEMBL document CHEMBL2390918, “Cinnamides as selective small-molecule inhibitors of a cellular model of breast cancer stem cells” (Bioorg Med Chem Lett, 2013).
# Sequences of proteins named here, by UniProt entry; tags and fusion partners are left off. A change or cut given only in a name is not applied to a line headed by its entry.
# UniProt P25105: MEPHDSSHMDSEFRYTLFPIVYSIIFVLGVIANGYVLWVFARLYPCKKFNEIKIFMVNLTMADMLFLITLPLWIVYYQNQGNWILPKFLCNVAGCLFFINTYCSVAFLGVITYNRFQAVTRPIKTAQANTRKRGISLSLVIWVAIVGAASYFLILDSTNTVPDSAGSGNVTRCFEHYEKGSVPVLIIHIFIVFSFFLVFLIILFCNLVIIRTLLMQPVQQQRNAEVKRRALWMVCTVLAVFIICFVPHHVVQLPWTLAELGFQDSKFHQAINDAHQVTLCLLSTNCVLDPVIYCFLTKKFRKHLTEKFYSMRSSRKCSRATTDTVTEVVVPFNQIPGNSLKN
# Target: Platelet-activating factor receptor (Homo sapiens, UniProt P25105)
smiles,measurement,value
CCCCCCCCCCCCCCCCOC[C@H](COP(=O)([O-])OCC[N+](C)(C)C)OC(C)=O,IC50,0.28 nM
